We go through 18 compounds from patent publication US12655107B2 (The United States of America, as represented by the …, priority 2018, dated 2026).

The subject of one data set is A549. Briefly: MTT cytotoxicity assay, A549. Format: cell-based. The conditions noted are these: Homo sapiens, A549, 72 h.
A short description of data set [1]: Pharmacokinetic study in rat. The following applies: SD rats.
For another data set, the system named is Huh7. Briefly: MTT cytotoxicity assay, Huh7. The following applies: Homo sapiens, Huh-7, 72 h, read-out: GI50 (μM) Huh7. The data set is classed as cell-based.
Another data set has as its system DU145. Put plainly: MTT cytotoxicity assay, DU145. The data set is classed as cell-based. The conditions noted are these: Homo sapiens, DU-145, 72 h. In general terms: Tetrazolium dyes change colour on reduction, which living cells bring about.
The next data set has as its system CCRF-CEM. Briefly: MTT cytotoxicity assay, CCRF-CEM. The data set is classed as cell-based, human. The conditions noted are these: 72 h; for GI50 (μM) CCRF-CEM: MTT, Table 1b.
The next data set concerns HCT116. Put plainly: MTT cytotoxicity assay, HCT116. The following applies: Homo sapiens, HCT-116, 72 h.
In a further data set the test system is MCF-7. Put plainly: MTT cytotoxicity assay, MCF-7. The following applies: Homo sapiens, MCF7, 72 h, read-out: GI50 ± SC (μM) MCF-7. The data set is classed as cell-based.

Molecules are shown by their SMILES. Read-outs that look alike come from different tables or passages of the source.

Consider `COc1cc2c(=O)n(CCCO)c3c4cc5c(cc4ccc3c2cc1OC)OCO5` [Compound 17b, 12-(3-Hydroxypropyl)-2,3-dimethoxy-[1,3]dioxolo[4′,5′:4,5]benzo[1,2-c]phenanthridin-13(12H)-one], for which the GI50 (commonly the concentration giving 50% growth inhibition) in the data set with A549 (read-out: GI50 (μM) A549) is greater than 100 µM.

Take `COc1cc2c(=O)n(CCN(C)C)c3c4cc5c(cc4ccc3c2cc1OC)OCO5` [Compound 19a, 12-(2-(Dimethylamino)ethyl)-2,3-dimethoxy-[1,3]dioxolo[4′,5′:4,5]benzo[1,2-c]phenanthridin-13(12H)-one]: the “MRTINF” value in data set [1] (i.g. 5 mg/kg) is 4.73 ± 3.3 h; in data set [1] (i.v. 1 mg/kg), 1.01 ± 0.023 h.

With `COc1cc2c(=O)n(CCN3CCOCC3)c3c4cc5c(cc4ccc3c2cc1OC)OCO5` [Compound 23a, 2,3-Dimethoxy-12-(2-morpholinoethyl)-[1,3]dioxolo[4′,5′:4,5]benzo[1,2-c]phenanthridin-13(12H)-one], the GI50 with A549 (read-out: GI50 (μM) A549) and in the data set on Huh7 was greater than 100 µM each time.

Regarding `COc1cc2c(=O)n(CCCN3CCOCC3)c3c4cc5c(cc4ccc3c2cc1OC)OCO5` [Compound 23b, 2,3-Dimethoxy-12-(3-morpholinopropyl)-[1,3]dioxolo[4′,5′:4,5]benzo[1,2-c]phenanthridin-13(12H)-one], the 50% growth inhibitory concentration (GI50) in the data set with DU145 (read-out: GI50 (μM) DU145), in the data set on A549 (read-out: GI50 (μM) A549) and in the data set with Huh7 was greater than 100 µM throughout.

`COc1cc2c(=O)n(CCCN3CCN(C)CC3)c3c4cc5c(cc4ccc3c2cc1OC)OCO5` [Compound 24b, 2,3-dimethoxy-12-(3-(4-methylpiperazin-1-yl)propyl)-[1,3]dioxolo[4′,5′:4,5]benzo[1,2-c]phenanthridin-13(12H)-one]: the GI50 in the data set with A549 (read-out: GI50 (μM) A549) and in the data set with Huh7 was greater than 100 µM each time.

With `COc1cc2c(cc1OC)-c1ccc3cc4c(cc3c1N(CCCN1CCCC1)C2)OCO4` [Compound 28b, 2,3-Dimethoxy-12-(3-(pyrrolidin-1-yl)propyl)-12,13-dihydro-[1,3]dioxolo[4′,5′:4,5]benzo[1,2-c]phenanthridine], the “GI50 (μM) CCRF-CEM” value in the data set with CCRF-CEM is “submicromolar concentration”.

For the compound `COc1cc2c(cc1OC)-c1ccc3cc4c(cc3c1N(CCCN1CCCCC1)C2)OCO4` [Compound 29b, 2,3-Dimethoxy-12-(3-(piperidin-1-yl)propyl)-12,13-dihydro-[1,3]dioxolo[4′,5′:4,5]benzo[1,2-c]phenanthridine], in the data set on CCRF-CEM, the “GI50 (μM) CCRF-CEM” value is recorded as “submicromolar concentration”.

Consider `COc1cc2c(cc1OC)-c1ccc3cc4c(cc3c1N(CCN1CCOCC1)C2)OCO4` [Compound 30a, 2,3-Dimethoxy-12-(2-morpholinoethyl)-12,13-dihydro-[1,3]dioxolo[4′,5′:4,5]benzo[1,2-c]phenanthridine], for which the “GI50 (μM) CCRF-CEM” value with CCRF-CEM is reported as “submicromolar concentration”. Further, in the data set with Huh7, the concentration for 50% growth inhibition (GI50) is greater than 100 µM.

Consider `COc1cc2c(cc1OC)-c1ccc3cc4c(cc3c1N(CCCN1CCOCC1)C2)OCO4` [Compound 30b, 2,3-Dimethoxy-12-(3-morpholinopropyl)-12,13-dihydro-[1,3]dioxolo[4′,5′:4,5]benzo[1,2-c]phenanthridine], for which the “GI50 (μM) CCRF-CEM” value in the data set with CCRF-CEM was “submicromolar concentration”. Further, the GI50 in the data set on A549 (read-out: GI50 (μM) A549) and in the data set on Huh7 was greater than 100 µM throughout.

Turning to `CCN(CC)CCOc1nc2c3cc4c(cc3ccc2c2cc(OC)c(OC)cc12)OCO4` [Compound 40a, 2,3-Dimethoxy-13-(2-(diethylamino)ethoxy)-[1,3]dioxolo[4′,5′:4,5]benzo[1,2-c]phenanthridine], the GI50 with A549 (read-out: GI50 (μM) A549) and in the data set on Huh7 was greater than 100 µM each time.

`CCN(CC)CCCOc1nc2c3cc4c(cc3ccc2c2cc(OC)c(OC)cc12)OCO4` [Compound 40b]: the GI50 with Huh7 is greater than 100 µM.

Turning to `COc1cc2c(OCCCN3CCCCC3)nc3c4cc5c(cc4ccc3c2cc1OC)OCO5` [Compound 42b, 2,3-Dimethoxy-13-(3-(piperidin-1-yl)propoxy)-[1,3]dioxolo[4′5′:4,5]benzo[1,2-c]phenanthridine], the GI50 with A549 (read-out: GI50 (μM) A549), with Huh7 and in the data set on HCT116 (read-out: GI50 (μM) HCT116) was greater than 100 µM each time.

For the compound `COc1cc2c(OCCN3CCOCC3)nc3c4cc5c(cc4ccc3c2cc1OC)OCO5` [Compound 43a, 2,3-Dimethoxy-13-(2-morpholinoethoxy)-[1,3]dioxolo[4′,5′:4,5]benzo[1,2-c]phenanthridine], the GI50 in the data set on A549 (read-out: GI50 (μM) A549) and in the data set on Huh7 was greater than 100 µM each time.

Turning to `COc1cc2c(OCCCN3CCOCC3)nc3c4cc5c(cc4ccc3c2cc1OC)OCO5` [Compound 43b, 2,3-Dimethoxy-13-(3-morpholinopropoxy)-[1,3]dioxolo[4′,5′:4,5]benzo[1,2-c]phenanthridine], the GI50 in the data set with CCRF-CEM (Homo sapiens, CCRF-CEM, read-out: GI50 (μM) CCRF-CEM) was greater than 100 µM; in the data set with DU145 (read-out: GI50 (μM) DU145), greater than 100 µM; in the data set on A549 (read-out: GI50 (μM) A549), greater than 100 µM; with Huh7, greater than 100 µM; in the data set with HCT116 (read-out: GI50 (μM) HCT116), greater than 100 µM.

With `COc1cc2c(OCCCN3CCN(C)CC3)nc3c4cc5c(cc4ccc3c2cc1OC)OCO5` [Compound 44b, 2,3-Dimethoxy-13-(3-(4-methylpiperazin-1-yl)propoxy)-[1,3]dioxolo[4′,5′:4,5]benzo[1,2-c]phenanthridine], in the data set with Huh7, the GI50 is greater than 100 µM.

As for `COc1cc2c(OCCn3ccnc3)nc3c4cc5c(cc4ccc3c2cc1OC)OCO5` [Compound 45a, 13-(2-(1H-imidazol-1-yl)ethoxy)-2,3-dimethoxy-[1,3]dioxolo[4′,5′:4,5]benzo[1,2-c]phenanthridine], the GI50 with DU145 (read-out: GI50 (μM) DU145) is greater than 100 µM.

For the compound `COc1cc2c(OCCCn3ccnc3)nc3c4cc5c(cc4ccc3c2cc1OC)OCO5` [Compound 45b, 13-(3-(1H-imidazol-1-yl)propoxy)-2,3-dimethoxy-[1,3]dioxolo[4′,5′:4,5]benzo[1,2-c]phenanthridine], in the data set with HCT116 (read-out: GI50 (μM) HCT116), the GI50 is greater than 100 µM.

Regarding `COc1cc2c(=O)n(CCN(C)P3(=O)OCCO3)c3c4cc5c(cc4ccc3c2cc1OC)OCO5` [Compound 57, 2,3-dimethoxy-12-(2-(methyl(2-oxido-1,3,2-dioxaphospholan-2-yl)amino)ethyl)-[1,3]dioxolo[4′,5′:4,5]benzo[1,2-c]phenanthridin-13(12H)-one], the GI50 in the data set with DU145 (read-out: GI50 ± SC (μM) DU145) was determined as 3.6 ± 0.25 µM; in the data set with A549 (read-out: GI50 ± SC (μM) A-49), 1.9 ± 0.034 µM; in the data set on MCF-7, 1.8 ± 0.47 µM; in the data set on HCT116 (read-out: GI50 ± SC (μM) HCT116) it was 5.9 ± 1.2 µM.
